# Assay results from patent US4179514A, “Ketoalkanesulfenyl and ketoalkanethiosulfenyl carbamates” (priority 1978, dated 1979).
# System: rat
# Assay: peroral toxicity to mammals (rat)
# Assay type: in vivo
# Settings: dose required to achieve mortality rate of 50 percent
# Description: Certain of these compositions were also evaluated to determine their peroral toxicity to mammals. The animal selected for this experiment was the rat. The test results obtained are expressed in terms of the number of milligrams of compositions per kilogram of weight of the animal required to achieve a mortality rate of 50 percent (LD50).
substance,measurement,value
"1-(2-Cyanoethylthio)acetaldehyde 0-[N-methyl-N-(2,4-dimethyl-3-oxo-2-pentanethiosulfenyl)carbamoyl]oxime",A.O. RAT LD50,20 mg/kg
